In the series the test system is liver, kidneys, lungs, and spleen. The note with it: versus untreated control/blast groups.

Entries after “also recorded” stand apart in the source; their conditions may differ.

On to `CN(C)c1ccc(O)c2c1C[C@H]1C[C@H]3[C@H](N(C)C)C(O)=C(C(N)=O)C(=O)[C@@]3(O)C(O)=C1C2=O` [minocycline, Minocycline], for which the “histopathology of liver, kidneys, lungs and spleen (H&E)” value is recorded as “no abnormal histopathological findings; also recorded: no abnormal histopathological changes or lesions”.

These data come from patent publication US12329765B2, “Targeted nanoparticle for the treatment of traumatic brain injury and other CNS diseases” (priority 2021, dated 2025).
